Reference: patent US20120101169A1, “METHODS OF PROVIDING ANTICOAGULATION EFFECTS IN SUBJECTS” (Penwest Pharmaceuticals Co., priority 2010, published 2012)

Key:
[1] = system: coagulation (PT, INR, aPTT); assay: Basic coagulation panel (PT, INR, aPTT) and coagulation safety (Example 5)
fibrinogen (factor I) = assay: Extended coagulation biomarker panel: factor I; conditions: in vivo
coagulation [2] = assay: 4 week rat study
coagulation [3] = assay: 4 week dog study

Structure (SMILES): CC1=C(C)C(=O)C(CC[C@](C)(O)CCC[C@H](C)CCC[C@H](C)CCCC(C)C)=C(C)C1=O [ATQ, alpha-tocopherolquinone]
- Subjects with INR more than two times the normal level (discontinued) ([1]; 0.67 g TID group): 3 of 8
- Intensity (grade) of maximum increase in INR ([1]; 0.75 g BID): Grade 2 (“Grade 2” refers to an INR value of 1.65 to 2.2 in a subject)
- Intensity (grade) of increase in INR ([1]; multiple daily administration of 2-g/day (0.67 g TID)): Grade 3 (“Grade 3” refers to an INR value greater than 2.2 in a subject)
- Intensity (grade) of increase in INR ([1]; single daily doses of 3-g ATQ): Grade 2 (“Grade 2” refers to an INR value of 1.65 to 2.2 in a subject)
- Effect on fibrinogen (factor I) concentrations (fibrinogen (factor I)): did not appear to affect
- Effect on coagulation (coagulation [2]): appeared to have an effect on coagulation
- Effect on coagulation (coagulation [3]): appeared to have an effect on coagulation
